{"sequences": {"note": "By UniProt entry, the sequences of proteins in these tests, tags left out. Residues count along the entry.", "UniProt Q60748, 27-431 isoform Q60748-2 limits assumed": "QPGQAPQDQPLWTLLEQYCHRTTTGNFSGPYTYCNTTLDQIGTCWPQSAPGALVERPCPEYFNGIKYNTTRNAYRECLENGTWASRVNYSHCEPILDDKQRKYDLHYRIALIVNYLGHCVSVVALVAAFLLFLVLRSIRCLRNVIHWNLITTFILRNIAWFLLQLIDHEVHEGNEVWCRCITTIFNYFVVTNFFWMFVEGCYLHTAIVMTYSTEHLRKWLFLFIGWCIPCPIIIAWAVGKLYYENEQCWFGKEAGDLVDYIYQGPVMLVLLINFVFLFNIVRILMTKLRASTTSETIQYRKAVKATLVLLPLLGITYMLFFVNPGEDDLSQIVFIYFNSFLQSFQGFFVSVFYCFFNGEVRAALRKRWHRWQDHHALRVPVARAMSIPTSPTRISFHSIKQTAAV"}, "source": "patent US8044025B2", "about": "“Urocortin proteins and uses thereof” (Research Development Foundation, priority 2000, dated 2011)", "key": {"[1]": {"assay": "Telemetric gross motor activity after icv peptide", "type": "in vivo, rat", "conditions": "1 μg icv, rats, telemetry", "description": "(§1) To identify cell groups responsive to central Ucn II administration, and to evaluate the extent to which these may conform to sites of CRF-R2 expression, the induced expression of the immediate-early gene product, Fos, in response; to icv peptide administration was monitored. Adult male Sprague-Dawley rats (250-300 g at start of experiments) and C57 BL/6 mice (25-40 g) were housed in a colony room on a 12:12 light:dark cycle, and with free access to food and water prior to experimentation. For intracerebroventricular (icv) injections, rats were anesthetized with ketamine/xylazine/acepromazine and stereotaxically implanted with a 26 ga guide cannula terminating in the lateral ventricle. For intravenous (iv) administration of peptides, animals were fitted with indwelling jugular venous catheters. Rats that received icv injections were also implanted intra-abdominally with a transmitter to remotely monitor gross activity levels and body temperature (Mini-Mitter). After surgery, animals were allowed to recover for 7 days prior to any experimentation, during which time they were handled daily. […]\nIn these same subjects, gross motor activity and body temperature were monitored telemetrically (FIG. 10B). […] Core body temperature was also recorded, with each peptide provoking comparably mild (0.5-1° C.) and transient (2 hr) hypothermic responses (data not shown)."}, "CRFR1 [2]": {"molecular_target": "T1, CRFR1 (Homo sapiens, UniProt P34998)", "T1 construct": "expressed in transfected cells; host or cells: CHO cells, stably transfected", "T1 sequence (P34998 24-415)": "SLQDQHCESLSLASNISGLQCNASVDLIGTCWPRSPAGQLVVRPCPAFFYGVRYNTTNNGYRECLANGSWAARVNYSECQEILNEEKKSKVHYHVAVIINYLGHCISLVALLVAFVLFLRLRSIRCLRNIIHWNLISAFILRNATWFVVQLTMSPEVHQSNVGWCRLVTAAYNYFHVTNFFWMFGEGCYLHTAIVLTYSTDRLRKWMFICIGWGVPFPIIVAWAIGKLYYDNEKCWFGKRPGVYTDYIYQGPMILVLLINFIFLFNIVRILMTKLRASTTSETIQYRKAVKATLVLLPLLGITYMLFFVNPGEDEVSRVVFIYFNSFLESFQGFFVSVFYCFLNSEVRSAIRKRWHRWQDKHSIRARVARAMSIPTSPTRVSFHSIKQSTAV", "assay": "Accumulation of intracellular cAMP in stably transfected CHO cells", "type": "cell-based", "conditions": "peptides 20 min at 37° C.", "experimental": "(§2) The values were determined from 3-6 independent experiments using stably transfected CHO cells or their membranes for each test peptide. EC50 and Ki values were determined using Prism software. Their log10 values were averaged (γ). The average EC50 or Ki was taken to be 10^γ. The standard deviation of the log10 values was calculated (σ). The ranges given were taken to be: [(10^γ)10^σ or 10^γ/10^σ].\n(§3) This significant selectivity for the type 2 receptor was seen also in receptor activation as measured by accumulation of intracellular cAMP. Stably transfected CHO cells (cultured in DMEM/10% FBS) were plated into 48-well tissue culture dishes (Costar) and allowed to recover for 24 hours. The medium was changed to DMEM/0.1% FBS at least two hours before treatment. The cells were preincubated for 30 min with 0.1 mM 3-isobutyl-1-methylxanthine and then exposed to peptides for 20 min at 37° C. Intracellular cAMP was extracted and measured in duplicate from triplicate wells using a RIA kit (Biomedical Technologies). […] The extremely low affinity of Ucn II for CRF-R1 precluded a determination of its efficacy on this receptor."}, "CRF-R2": {"molecular_target": "T2, CRF-R2 (Mus musculus, UniProt Q60748)", "T2 construct": "expressed in transfected cells; host or cells: CHO cells, stably transfected", "assay": "Accumulation of intracellular cAMP in stably transfected CHO cells", "type": "cell-based", "conditions": "peptides 20 min at 37° C.", "experimental": "as §2, §3"}, "[3]": {"assay": "Nocturnal food intake after icv peptide", "type": "in vivo, rat", "conditions": "1 μg icv, rats", "description": "as §1, with “catheters.” for “catheters. Rats that received icv injections were also implanted intra-abdominally with a transmitter to remotely monitor gross activity levels and body temperature (Mini-Mitter). After surgery, animals were allowed to recover for 7 days prior to any experimentation, during which time they were handled daily.”\nTo monitor induced patterns of Fos expression, rats were injected at 10 am, either icv or iv with synthetic Ucn II (1, 5 or 10 μg/animal in 2 μl saline for icv injections or 200 μl for iv administration), or vehicle alone, and perfused two hours later. […] Consumption was then measured hourly for 6 hrs and at 12 hrs. Data were analyzed using repeated measures analysis of variance (ANOVA), with the Bonferoni correction for multiple comparisons applied as warranted. […]"}, "Fos expression": {"test_system": "Fos expression", "assay": "Ucn II-induced Fos expression in rat brain", "type": "in vivo", "description": "To identify cell groups responsive to central Ucn II administration, and to evaluate the extent to which these may conform to sites of CRF-R2 expression, the induced expression of the immediate-early gene product, Fos, in response; to icv peptide administration was monitored. Adult male Sprague-Dawley rats (250-300 g at start of experiments) and C57 BL/6 mice (25-40 g) were housed in a colony room on a 12:12 light:dark cycle, and with free access to food and water prior to experimentation. For intracerebroventricular (icv) injections, rats were anesthetized with ketamine/xylazine/acepromazine and stereotaxically implanted with a 26 ga guide cannula terminating in the lateral ventricle. For intravenous (iv) administration of peptides, animals were fitted with indwelling jugular venous catheters. Rats that received icv injections were also implanted intra-abdominally with a transmitter to remotely monitor gross activity levels and body temperature (Mini-Mitter). After surgery, animals were allowed to recover for 7 days prior to any experimentation, during which time they were handled daily. All procedures were approved by the Institutional Animal Care and Use Committee of the Salk Institute.\nTo monitor induced patterns of Fos expression, rats were injected at 10 am, either icv or iv with synthetic Ucn II (1, 5 or 10 μg/animal in 2 μl saline for icv injections or 200 μl for iv administration), or vehicle alone, and perfused two hours later. […] Consumption was then measured hourly for 6 hrs and at 12 hrs. Data were analyzed using repeated measures analysis of variance (ANOVA), with the Bonferoni correction for multiple comparisons applied as warranted.\nFor immunohistochemistry, tissue was pretreated sequentially with 0.3% hydrogen peroxide and 1% sodium borohydride. It was then permeabilized with PBS/0.2% triton X-100, and incubated with primary antiserum for 48 hr in PBS/2% blocking serum. Fos immunoreactivity was localized using a polyclonal antiserum raised in rabbit against an N-terminal synthetic fragment of human Fos protein (Santa Cruz Biotechnology, 1:5 K). […]"}, "CRFR1 [4]": {"molecular_target": "T1, CRFR1", "assay": "Radioreceptor assay, displacement of 125I-[Tyr0,Glu1,Nle17]-sauvagine, CHO cell membranes (Example 4)", "type": "binding", "experimental": "The affinity of Ucn II to the CRF-R1 and CRF-R2 receptors was evaluated using a radioreceptor assay. Crude membrane fractions were prepared from CHO cells stably expressing either cloned CRF-R1 or CRF-R2β. Test peptides and the radioligand, ^125I-[Tyr^0, Glu^1, Nle^17]-sauvagine, were diluted in assay buffer (20 mM HEPES, 2 mM EGTA, 0.1% BSA, 10% sucrose, pH 7.6) and combined with the receptor membrane preparations in MAGV microtiter plates (Millipore) pre-coated with 0.1% polyethylene imine. The reaction mixture was incubated for 90 min at room temperature followed by rapid washing twice with assay buffer and filtration. The radioligand complex was quantified by gamma radiation counting. Inhibitory binding constants were determined using Prism software.\nas §2"}}}
{"smiles": "CC[C@H](C)[C@H](NC(=O)[C@H](CCC(N)=O)NC(=O)[C@H](C)NC(=O)[C@H](CC(N)=O)NC(=O)[C@@H](NC(=O)[C@H](C)NC(=O)[C@H](C)NC(=O)[C@H](CCC(N)=O)NC(=O)[C@H](CC(N)=O)NC(=O)[C@H](CCCNC(=N)N)NC(=O)[C@H](C)NC(=O)[C@H](C)NC(=O)[C@H](CCCCN)NC(=O)[C@H](Cc1ccc(O)cc1)NC(=O)[C@H](CCCNC(=N)N)NC(=O)[C@H](C)NC(=O)[C@H](CCC(N)=O)NC(=O)[C@H](CCC(=O)O)NC(=O)[C@H](CC(C)C)NC(=O)[C@H](CC(C)C)NC(=O)[C@@H](NC(=O)[C@H](CCCNC(=N)N)NC(=O)[C@H](CC(C)C)NC(=O)[C@H](CC(C)C)NC(=O)CNC(=O)[C@@H](NC(=O)[C@@H]1CCCN1C(=O)[C@@H](NC(=O)[C@H](CC(=O)O)NC(=O)[C@H](CC(C)C)NC(=O)[C@H](CO)NC(=O)[C@H](CC(C)C)NC(=O)[C@@H](NC(=O)[C@@H](N)C(C)C)[C@@H](C)CC)C(C)C)[C@@H](C)CC)[C@@H](C)CC)[C@@H](C)O)C(=O)N[C@@H](CC(C)C)C(=O)N[C@@H](C)C(=O)N[C@@H](Cc1c[nH]cn1)C(=O)N[C@H](C(N)=O)C(C)C", "note": "[Urocortin II]", "values": [{"measurement": "Gross motor activity versus vehicle", "setting": "[1]", "value": "neither urocortin nor urocortin II significantly affected motor activity"}, {"measurement": "Gross motor activity versus vehicle", "setting": "[1]; listed as Ucn II", "value": "Neither Ucn nor Ucn II treatment provoked reliable alterations"}, {"measurement": "EC50", "setting": "CRFR1 [2]", "value": "> 100", "unit": "nM"}, {"measurement": "EC50", "setting": "CRF-R2", "value": 0.14, "unit": "nM"}, {"measurement": "Degree of suppression of food intake over the 12 hr interval", "setting": "[3]; nocturnal phase", "value": 35, "unit": "%"}, {"measurement": "Time post-injection at which food intake is significantly less than saline controls", "setting": "[3]", "value": 6, "unit": "h"}, {"measurement": "Induced Fos expression in brain", "setting": "Fos expression; 1 μg icv, rats perfused two hours later", "value": "activational responses that were most salient in a group of interconnected structures involved in central autonomic control"}, {"measurement": "Induced Fos expression in brain", "setting": "Fos expression; 5 or 10 μg icv", "value": "more robust activational responses of similar distribution"}, {"measurement": "Induced Fos expression in brain", "setting": "Fos expression; intravenous, 1, 5 or 10 μg", "value": "Only the highest (10 μg) dose gave rise to Fos induction that was clearly above control levels"}, {"measurement": "Ki", "setting": "CRFR1 [4]; CHO membranes, 3-6 experiments, range from SD of log10 values, read-out: CRF-R1 Avg. Ki (nM) (Binding)", "value": "> 100", "unit": "nM"}, {"measurement": "Fold less effective than urocortin at competing for binding of labeled sauvagine to CRF-R1", "setting": "CRFR1 [4]; compared to urocortin", "value": "at least 1000 fold"}]}
